Test results as given in PubChem BioAssay AID1777 (Sanford-Burnham Center for Chemical Genomics, 2009).
The other results are listed elsewhere or left out. Potency and affinity values are given separately. Active and inactive are the calls of the source. Cut-off read from the data, not from the text of the source: active = activation above about 50% (passing the limit was not always enough); inactive = the rest.

Sequences of proteins named here, by UniProt entry; tags and fusion partners are left off. A change or cut given only in a name is not applied to a line headed by its entry.
UniProt P41145: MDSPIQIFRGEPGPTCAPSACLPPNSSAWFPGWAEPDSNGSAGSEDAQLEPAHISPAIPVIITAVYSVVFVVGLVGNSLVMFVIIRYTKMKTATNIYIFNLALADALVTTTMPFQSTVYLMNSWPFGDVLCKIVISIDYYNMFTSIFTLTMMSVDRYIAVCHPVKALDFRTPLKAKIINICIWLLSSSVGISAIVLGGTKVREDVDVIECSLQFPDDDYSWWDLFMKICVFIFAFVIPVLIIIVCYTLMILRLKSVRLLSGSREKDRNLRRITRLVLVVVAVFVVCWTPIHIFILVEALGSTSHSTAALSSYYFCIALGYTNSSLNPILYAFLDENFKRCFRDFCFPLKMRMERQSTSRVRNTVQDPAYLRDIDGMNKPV

Molecular target: Kappa-type opioid receptor (Homo sapiens) (UniProt P41145)
Test: KOR agonists, beta-arrestin recruitment, primary screen, cell-based, luminescence, uHTS (AID 1777)
Conditions: at 10 µM, hits give high values

| SMILES | activation |
| --- | --- |
| Cc1nc2cc(C(F)(F)F)ccc2n1C1CCN(Cc2nnnn2Cc2ccc3c(c2)OCO3)CC1 | inactive: -3.3% |
| Cn1c(=O)[nH]c(=O)c2c1nc(CN1CCN(c3ccccc3F)CC1)n2CC(N)=O | inactive: 3.3% |
| Cc1ccc(CNC(=O)CCNC(=O)N2CCn3c2nc2ccccc23)cc1 | inactive: 0.5% |
| c1ccc(CN2CCC3(CC2)Nc2ccccc2S3)cc1 | inactive: -3.5% |
| COc1ccc(CNc2nc3ccccc3n2CCN2CCCCC2)c(OC)c1 | inactive: 2.5% |
| COc1ccc(N2CCn3c2nc2c3c(=O)n(CCCc3ccccc3)c(=O)n2C)c(OC)c1 | inactive: -0.5% |
| COc1ccccc1CNc1nc2ccccc2n1CCN1CCCCC1 | inactive: 1.6% |
| CCSc1nnc(NC(=O)Cn2cnc3c2c(=O)n(C)c(=O)n3C)s1 | inactive: 0.7% |
| C=CCc1cccc(CNc2nc3ccccc3n2CCN2CCOCC2)c1O | inactive: -1.4% |
| O=C(Nc1cc([As](=O)(O)O)ccc1O)c1ccccc1 | inactive: 4.4% |
| Cn1c(=O)n(CC(=O)Nc2ccccc2)c2ccccc21 | inactive: 1% |
| O=C(c1ccco1)N1CCn2c1nc1ccccc12 | inactive: -3.8% |
| COc1ccc(Cc2nc3ccccc3n2CC(=O)N/N=C/c2ccccc2)cc1OC | inactive: -0.9% |
| COc1ccccc1NS(=O)(=O)c1cc(NC(=O)Cn2cnc3c2c(=O)n(C)c(=O)n3C)ccc1C | inactive: -1.2% |
| Cn1c(=O)[nH]c(=O)c2c1nc(SCc1ccccc1Cl)n2CC(N)=O | inactive: 3.3% |
| COc1ccc(CNC(=O)Cn2cnc3c(=O)n(C)c(=O)n(C)c32)cc1 | inactive: 2.6% |
| Cc1ccc2c(c1)[C@@H]1CN(C)CC[C@@H]1N2S(=O)(=O)c1ccc(F)cc1 | inactive: 6.6% |
| CCOC(=O)c1c(NC(=O)Cn2c(C)nc3ccccc32)sc2c1CCC2 | inactive: 1.8% |
| COc1ccc(N2CCn3c2nc2c3c(=O)n(CCCc3ccccc3)c(=O)n2C)cc1 | inactive: 5.6% |
| CC(C)C[C@H](NC(=O)N1CCn2c1nc1ccccc12)C(=O)NC1CCCCC1 | inactive: 2% |
| O=C(Nc1ccc2c(c1)nc1n2CCN(Cc2ccccc2)C1)NC1CCCCC1 | inactive: -4% |
| CCN(/C(=N/P(=O)(N1CCOCC1)N1CCOCC1)N1CCOCC1)c1ccc(OC)cc1 | inactive: -3.5% |
| COc1ccc(/C([O-])=C(/C(=S)Nc2ccc(C)c(C)c2)n2c[n+](C)c3ccccc32)cc1OC | inactive: 0.5% |

| SMILES | activation |
| --- | --- |
| Cc1ccc(-c2nnc(N3CCN(C(=O)Cn4c(=O)n(C)c5ccccc54)CC3)c3ccccc23)cc1 | inactive: -2% |
| Cc1nc2ccccc2n1CC(=O)NC(C)C1CC2CCC1C2 (stereo unspecified) | inactive: -2.5% |
| CCc1ccc(C(C)NC(=O)Cn2cnc3c(=O)n(C)c(=O)n(C)c32)cc1 (stereo unspecified) | inactive: 0.7% |
| C[N+]1=C2C=CC=CC=C2SC12C([N+](=O)[O-])=CC([N+](=O)[O-])=C[C-]2[N+](=O)[O-] (stereo unspecified) | inactive: -2.4% |
| Cc1ccc2c(c1)C1CN(C)CCC1N2C(=O)Cn1cnc2c1c(=O)n(C)c(=O)n2C (stereo unspecified) | inactive: 1.1% |
| Nc1ccc([As](=O)(O)c2ccc(N)cc2)cc1 | inactive: 2.4% |
| C[C@H](NC(=O)N1CCn2c1nc1ccccc12)C(=O)NC1CCCCC1 | inactive: 0.8% |
| c1ccc(CCn2nnnc2CN2CCC(n3nnc4ccccc43)CC2)cc1 | inactive: -3.9% |
| CCC(CC)NC(=O)Cn1c(C(C)NC(C)=O)nc2ccccc21 (stereo unspecified) | inactive: 3.2% |
| FC(F)(F)c1ccc2c(c1)nnn2C1CCN(Cc2nnnn2Cc2ccccc2)CC1 | inactive: 7.9% |
| COc1ccc2nc(NC(=O)Cn3cnc4c(=O)n(C)c(=O)n(C)c43)sc2c1 | inactive: 1.9% |
| CCC(=O)Nc1ccc(NC(=S)NC(=O)/C=C/c2ccccc2)cc1 | inactive: 4.2% |
| CCSc1nc2ccccc2n1CC(=O)N1CCCCC1 | inactive: -0.8% |
| Cc1nc2ccccc2n1CC(=O)NC1CCCCCC1 | inactive: -0.4% |
| O=C1CC(C(=O)Nc2cccc(F)c2)n2c(nc3ccccc32)N1 (stereo unspecified) | inactive: -1.5% |
| CC1CCN(C(=O)Oc2c(Cl)cc(Cl)c3cccnc23)CC1 | inactive: -2.5% |
| CNC(=O)Cc1nc2ccccc2n1CC(=O)Nc1cc(C)cc(C)c1 | inactive: -0.8% |
| N=c1n(CCN2CCOCC2)c2ccccc2n1CC(=O)c1cccc([N+](=O)[O-])c1 | inactive: 4.2% |
| CN(C)C(=O)OCCc1n(C)cc[n+]1C | inactive: -2.9% |
| CC(C)=N/N=C(\N)N[N+](=O)[O-] | inactive: 2.2% |
| Cn1c(=O)n(CC(=O)N2CCN(c3nnc(-c4ccccc4)c4ccccc34)CC2)c2ccccc21 | inactive: 5.6% |
| NNC(=O)Cn1c(SCc2ccccc2)nc2ccccc21 | inactive: -11.6% |
| CCN(CC)CCn1c(NCc2cccc(OC)c2OC)nc2ccccc21 | inactive: 6.7% |

| SMILES | activation |
| --- | --- |
| CN1CCC(N(C)c2ncnc3ccc(Br)cc23)CC1 | inactive: -2.5% |
| Cn1c(=O)c2c(ncn2CC(=O)N2CCN(c3ccc([N+](=O)[O-])cc3)CC2)n(C)c1=O | inactive: 3% |
| CCc1nc2ccccc2n1CC(=O)N(C(C)CC)C1CCS(=O)(=O)C1 (stereo unspecified) | inactive: 2.4% |
| N=c1n(CCN2CCCCC2)c2ccccc2n1CC(O)c1ccco1 (stereo unspecified) | inactive: 6.5% |
| O=C(Cn1c(NCCO)nc2ccccc21)N1CCN(Cc2ccccc2)CC1 | inactive: 2% |
| Nc1ccccc1CNc1nc(NCCO)nc2c1ncn2CCN1CCOCC1 | inactive: -1.1% |
| Cn1c(=O)c2c(ncn2CC(=O)Nc2ccccc2)n(C)c1=O | inactive: -3.3% |
| NC(=O)CC(NC(=O)c1ccccc1)c1ccc(NC2CCN(Cc3ccccc3)CC2)c([N+](=O)[O-])c1 (stereo unspecified) | inactive: -6.2% |
| N#CCC(=O)N/N=C\c1cc(Br)ccc1OC/C=C/c1ccccc1 | inactive: -5.6% |
| Cc1ccc2c(c1)C1CN(C)CCC1N2S(=O)(=O)c1ccc(Oc2ccc([N+](=O)[O-])cc2)cc1 (stereo unspecified) | inactive: 4.7% |
| Cc1ccc(SCc2nc3ccccc3n2CC(=O)Nc2ccccc2)cc1 | inactive: 1% |
| Cc1cc(NC(=O)CSc2nc3ccccc3n2CC(=O)N2CC(C)CC(C)C2)no1 (stereo unspecified) | inactive: -6.6% |
| c1ccc(CN2CCC3(CC2)Nc2ccccc2CO3)cc1 | inactive: -2.5% |
| CCOC(=O)CSc1nc2ccccc2n1CC(=O)N1CCN(c2ccccc2)CC1 | inactive: 6.9% |
| Cn1c(=O)c2c(ncn2CC(=O)N2CCN(c3ccccc3F)CC2)n(C)c1=O | inactive: 1% |
| CCN(CC)CCn1c(=N)n(CCO)c2ccccc21 | inactive: -4.8% |
| COc1ccc(C2=NCC(CBr)S2)cc1 (stereo unspecified) | inactive: 9.2% |
| Cn1c(=O)c2c(ncn2CC(=O)N/N=C/c2ccco2)n(C)c1=O | inactive: -2.2% |
| CC(=O)N1CCc2cc(S(=O)(=O)NC(CC(C)C)C(=O)N3CCn4c3nc3ccccc34)ccc21 (stereo unspecified) | inactive: 2.1% |
| CCC(=O)Nc1cccc(C(=O)/C=C/c2cccs2)c1 | inactive: -4.4% |
| CCC(C)[C@H](NC(=O)N1CCn2c1nc1ccccc12)C(=O)NCCc1ccccc1 (stereo partly specified) | inactive: 0% |
| O=C(NC1CCCCC1)N1CCC(n2c(=O)[nH]c3ccccc32)CC1 | inactive: 9.1% |
| Cn1c(=O)c2c(nc(Sc3nc4ccccc4n3CC(=O)N3CCCCC3)n2C)n(C)c1=O | inactive: -4.3% |

| SMILES | activation |
| --- | --- |
| O=[N+]([O-])c1cc([N+](=O)[O-])c(CCNc2ccccc2)c([N+](=O)[O-])c1 | inactive: -0.6% |
| CCc1nc2c(n1)c1c(non1O)c1c2no[n+]1[O-] | inactive: -1.7% |
| Cn1c(=O)[nH]c(=O)c2c1nc(CN1CCN(Cc3ccccc3)CC1)n2CC(N)=O | inactive: -3.8% |
| Cc1csc2ncnc(NC3CCN(Cc4ccccc4)CC3)c12 | inactive: -0.9% |
| N=c1n(CCN2CCCCC2)c2ccccc2n1CC(O)COc1ccccc1 (stereo unspecified) | inactive: 0.2% |
| Cc1ccc(OCC(O)Cn2c(=N)n(CCN3CCOCC3)c3ccccc32)cc1 (stereo unspecified) | inactive: 3.4% |
| COC(=O)c1ccc(NC(=O)Cn2c(-c3nonc3N)nc3ccccc32)cc1 | inactive: 0% |
| Cc1ccc(NP(=O)(Oc2ccccc2)Oc2ccccc2)nc1 | inactive: 3.9% |
| CC1CC(C)CN(C(=O)Cn2c(-c3nonc3N)nc3ccccc32)C1 (stereo unspecified) | inactive: -6.6% |
| O=[N+]([O-])c1ccc(NC2CCN(Cc3ccccc3)CC2)c([N+](=O)[O-])c1 | inactive: -2.8% |
| Cc1nc2ccccc2n1CC(=O)N/N=C/c1cccs1 | inactive: -1.8% |
| COC(=O)c1ccccc1NC(=O)Cn1cnc2cc(C)c(C)cc21 | inactive: -5.7% |
| CSCC[C@H](NC(=O)N1CCn2c1nc1ccccc12)C(=O)N[C@H](Cc1ccccc1)C(=O)O | inactive: -0.8% |
| CCOc1ccccc1OCC(=O)NNC(=O)Cn1cnc2c1c(=O)n(C)c(=O)n2C | inactive: -3.5% |
| Cc1ccc(C)c(CN2CCC(n3nnc4cc(F)ccc43)CC2)c1 | inactive: 8% |
| Nc1nonc1-c1nc2ccccc2n1CC(=O)N1CCCCC1 | inactive: 2.4% |
| COC(=O)c1sccc1NC(=O)Cn1cnc2c1c(=O)n(C)c(=O)n2C | inactive: -3.3% |
| Cn1c(=O)[nH]c(=O)c2c1nc1n2CCN1Cc1ccccc1 | inactive: -2.8% |
| N#CCCNC(=O)Cn1c(COc2ccc(Cl)cc2)nc2ccccc21 | inactive: -6.3% |
| Cn1ncc([N+](=O)[O-])c1C(=O)Nc1nc2ccccc2n1CCN1CCCCC1 | inactive: 5.7% |
| CC#CCCC(=O)N1C=Cc2ccccc2C1C#N (stereo unspecified) | inactive: -2.7% |
| CC(=O)N1C2C3N(C(C)=O)C1C1N(C(C)=O)C(C(N1C(C)=O)N3C(C)=O)N2C(C)=O | inactive: 2.7% |
